Reference: article PMC5658359, “A potent small-molecule inhibitor of the DCN1-UBC12 interaction that selectively blocks cullin 3 neddylation” (Nature Communications, 2017)

The chains behind the UniProt entries cited, without tags or fusion partners. Residues count along the entry.
UniProt Q96GG9, 58-259: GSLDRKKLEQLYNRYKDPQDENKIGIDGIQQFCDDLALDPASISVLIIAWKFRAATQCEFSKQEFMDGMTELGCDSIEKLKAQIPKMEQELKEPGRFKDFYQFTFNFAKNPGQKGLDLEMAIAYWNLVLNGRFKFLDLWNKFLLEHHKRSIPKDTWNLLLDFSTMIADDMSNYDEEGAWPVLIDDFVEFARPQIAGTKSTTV

Molecular target: DCN1 (Homo sapiens, UniProt Q96GG9)
Assay: Competitive fluorescence polarization (FP) binding assay with probe 46, DCN1
Set-up: Human DCN1 (residues 58–259) were cloned into a pDEST17 plasmid containing an N-terminal His6 tag; made in house; host or cells: Rosetta2 cells (E. coli)
Settings: probe 46 5 nM, DCN1 50 nM
Description: The FP competitive binding experiments were performed to determine the binding affinities of all synthesized DCN1 inhibitors. […] Serial dilutions of DCN1 or DCN2 protein were mixed with the probe (46) to a final volume of 200 μl in the assay buffer (100 mM phosphate buffer, pH = 6.5, with 0.02% Tween-20 and 2% DMSO). The final probe concentration was 5 nM in both DCN1 and DCN2 assays. Plates were incubated at room temperature for 30 min with gentle shaking for equilibrium.
The IC50 and Ki values of compounds were determined in competitive binding experiments. Mixtures of compounds in DMSO (4 μl) and of pre-incubated protein/probe complex solution (196 μl) in the assay buffer were added into assay plates that were incubated at room temperature for 30 min with gentle shaking. Final concentrations of DCN1 protein and fluorescent probe (46) were 50 and 5 nM, respectively. […] FP values were measured as described above. IC50 values were determined by nonlinear regression fitting of the competition curves using the dose response inhibition equation (four parameters, variable slopes) included in the Prism/GraphPad software. K i values were calculated using the methods described earlier.

Question: Which Ki does the source give for CCC(=O)NC(Cc1nc2ccc(C(C)C)cc2s1)C(=O)NC(CNC(=O)C1CCN(CCOCCOCCOCCNC(=O)CCCCC2SCC3NC(=O)NC32)CC1)C1CCCCC1 (stereo not shown) [compound 47] here?
Answer: Its Ki is 4 nM.
